Results taken from PubChem BioAssay AID504692 (The Scripps Research Institute Molecular Screening Center, 2011).
The list shows a part of the results, in another mix than the full data. Some structures show a salt or complex split into parts, the way the source records it. Calls of active or inactive are those of the source. Rule as the data show it: active = activation mostly above about 9.5% (no sharp cut-off); inactive = mostly below about 7.6%.

Protein sequences, listed by entry. Tags and fused reporters are not part of them.
UniProt P47898, whole entry: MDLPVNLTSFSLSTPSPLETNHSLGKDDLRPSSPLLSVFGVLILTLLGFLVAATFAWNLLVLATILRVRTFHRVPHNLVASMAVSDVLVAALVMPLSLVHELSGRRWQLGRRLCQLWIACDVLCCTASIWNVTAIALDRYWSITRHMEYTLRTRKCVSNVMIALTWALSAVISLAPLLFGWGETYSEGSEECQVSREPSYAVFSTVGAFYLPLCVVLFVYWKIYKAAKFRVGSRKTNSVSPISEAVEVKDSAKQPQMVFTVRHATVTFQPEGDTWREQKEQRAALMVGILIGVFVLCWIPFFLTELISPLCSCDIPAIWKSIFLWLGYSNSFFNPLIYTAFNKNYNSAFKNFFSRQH

Target: 5-hydroxytryptamine receptor 5A (Homo sapiens) (UniProt P47898)
Experiment: HTR5A agonists in luminescence cell assay, primary screen, counter-screen for OPRM1-OPRD1 heterodimer agonist project, full-deck HTS (AID 504692);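 also: 0% = cells with vehicle only and 100% = reference agonist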
Conditions: cell-based, at 9.3 µM, hits give high values

SMILES	activation
CP(=O)(OC12CC3CC(CC(C3)C1)C2)OC12CC3CC(CC(C3)C1)C2	inactive: -2.61%
CCOC(=O)c1ccc(NP(C)(=O)Oc2ccc(Cl)cc2)cc1 (stereo not given)	inactive: 2.53%
CCCCN1CCC(C#N)(Nc2ccccc2)CC1	inactive: -3.37%
CN(C)C(=O)c1c([N+](=O)[O-])cc([N+](=O)[O-])cc1[N+](=O)[O-]	inactive: 0.97%
CP(=O)(Nc1ccc(Cl)cc1)Oc1ccc(F)cc1 (stereo not given)	inactive: 4.97%
COc1ccccc1OP(C)(=O)Nc1ccccc1Br (stereo not given)	inactive: -2.73%
CC(C)(C)c1ccc(OP(C)(=O)O)cc1	inactive: -2.06%
CP(=O)(Oc1ccccc1)N1CCOC1=O (stereo not given)	inactive: -2.26%
CCc1ccc(OP(C)(=O)Nc2cccnc2)cc1 (stereo not given)	inactive: 0.76%
COc1ccccc1OP(C)(=O)Nc1c(C)n(C)n(-c2ccccc2)c1=O (stereo not given)	inactive: 3.55%
O=C(OCCCN1CCCC1)C(O)(c1ccccc1)C1CCCCC1 (stereo not given)	inactive: -1.92%
CCN(CC)CC(O)COC(=O)C(O)(c1ccccc1)C1CCCCC1 (stereo not given)	inactive: 9.06%
COc1ccc(OP(C)(=O)Nc2ccc(Br)cc2)cc1 (stereo not given)	inactive: 1.78%
CCc1ccc(OP(C)(=O)O)cc1	inactive: -0.98%
CP(=O)(Nc1ccccn1)Oc1ccccc1 (stereo not given)	inactive: 2.21%
COc1ccccc1OP(C)(=O)Nc1ccc(C)cc1C (stereo not given)	inactive: 0.94%
Cc1c(NP(C)(=O)Oc2ccc(C(C)C)cc2)c(=O)n(-c2ccccc2)n1C (stereo not given)	inactive: 0.5%
O=[N+]([O-])c1cc([N+](=O)[O-])c(Nc2ccccn2)c([N+](=O)[O-])c1	inactive: -12%
CN(C)CCOC(=O)C(O)(c1ccccc1)C1CCCC1 (stereo not given)	inactive: -0.33%
COc1ccc(OP(C)(=O)Nc2ccccn2)cc1 (stereo not given)	inactive: -1.59%
COc1ccccc1OP(C)(=O)Nc1ccc(Br)cc1 (stereo not given)	inactive: 6.43%
CCCCCCCCCCCCCCCC1C[N+](C)(C)CCOP(C)(=O)O1 (stereo not given)	inactive: -4.01%
CP(=O)(Nc1ccc(Cl)cc1Cl)Oc1ccccc1 (stereo not given)	inactive: -2.04%
CP(=O)(OCCOc1ccccc1)OCCOc1ccccc1	inactive: 0.78%
COc1ccc(OP(C)(=O)Nc2ccccc2Br)cc1 (stereo not given)	inactive: -0.28%

SMILES	activation
COc1ccccc1OP(C)(=O)Nc1ccc(C)c(C)c1 (stereo not given)	inactive: 2%
O=C1C(O)=C([N+](=O)[O-])C(=O)C(O)=C1[N+](=O)[O-]	inactive: 2.38%
Cc1cc(C)cc(OP(C)(=O)Nc2cccc(C(F)(F)F)c2)c1 (stereo not given)	inactive: 2.41%
CCCCCOc1ccc(NP(C)(=O)Oc2ccc(Cl)cc2Cl)cc1 (stereo not given)	inactive: -4.42%
O=[N+]([O-])c1cc([N+](=O)[O-])c(OC2CCCCC2O)c([N+](=O)[O-])c1 (stereo not given)	inactive: 0.41%
CP(=O)(Nc1ccccc1)Oc1ccc(F)cc1 (stereo not given)	inactive: -1.54%
CCN(CC)CCCOC(=O)C(O)(c1ccccc1)C1CCCCC1 (stereo not given)	inactive: -1.96%
Cc1c([N+](=O)[O-])cc([N+](=O)[O-])c(Br)c1[N+](=O)[O-]	inactive: 3.43%
COc1ccc(OP(C)(=O)Nc2ccc(SC(F)(F)F)cc2)cc1 (stereo not given)	inactive: 0.96%
CCOC(=O)c1ccc(NP(C)(=O)Oc2ccc(F)cc2)cc1 (stereo not given)	inactive: 0.33%
COc1ccc2c(c1O)-c1c(O)c(OC)cc3c1[C@H](C2)[N+](C)(C)CC3.O=[N+]([O-])c1cc([N+](=O)[O-])c([O-])c([N+](=O)[O-])c1[O-]	inactive: 2.92%
O=C(OCCN1CCN(CCOCc2ccccc2)CC1)C(O)(c1ccccc1)c1ccccc1	inactive: -0.69%
O=C(OC1CN2CCC1CC2)c1ccc([N+](=O)[O-])cc1 (stereo not given)	inactive: 3.7%
CC(C)c1ccc(OP(C)(=O)Nc2ccc(SC(F)(F)F)cc2)cc1 (stereo not given)	inactive: 5.05%
CP(=O)(Nc1ccccc1F)Oc1ccccc1 (stereo not given)	inactive: -7.85%
Cc1ccccc1NP(C)(=O)Nc1ccccc1C	inactive: -2.27%
CP(=O)(Nc1ccc2c(c1)OCCO2)Oc1ccccc1 (stereo not given)	inactive: 0.38%
CCOP(C)(=S)SCC(=O)NC(C)(CC)C(=O)O (stereo not given)	inactive: 0.83%
CP(=O)(Nc1ccc(SC(F)(F)F)cc1)Oc1ccc(F)cc1 (stereo not given)	inactive: 0.56%
Cc1c(C(c2ccc3c(c2)OCO3)c2c(C)n(C)n(-c3ccccc3)c2=O)c(=O)n(-c2ccccc2)n1C.O=[N+]([O-])c1cc([N+](=O)[O-])c(O)c([N+](=O)[O-])c1	inactive: -1.03%
Cc1cc(-c2cccc3ccccc23)c(C)cn1.O=[N+]([O-])c1cc([N+](=O)[O-])c(O)c([N+](=O)[O-])c1	inactive: 2.37%
O=[N+]([O-])c1cc([N+](=O)[O-])c(NCC2CCS(=O)(=O)C2)c([N+](=O)[O-])c1 (stereo not given)	inactive: -0.33%
O=[N+]([O-])c1ccc(OP2(=O)COCCO2)cc1 (stereo not given)	inactive: -2.17%
COc1ccc(NP(C)(=O)Oc2ccccc2OC)cc1 (stereo not given)	inactive: 0.49%
CN(C)CCOC(=O)C(O)(c1ccccc1)C1CCCCC1 (stereo not given)	inactive: -2.11%

SMILES	activation
CN(C)C1(CNC(=O)c2ccc(Cl)c(S(N)(=O)=O)c2)CCCCC1	inactive: 5.18%
COc1ccc(OP(C)(=O)Nc2cccc(Br)c2)cc1 (stereo not given)	inactive: 1.39%
CCCOc1ccc(NP(C)(=O)Oc2ccc(Cl)cc2)cc1 (stereo not given)	inactive: 0.57%
CP(=O)(Nc1ccc(SC(F)(F)F)cc1)Oc1ccccc1 (stereo not given)	inactive: 4.96%
CN1CCCCC1COC(=O)C1(O)c2ccccc2CCc2ccccc21 (stereo not given)	inactive: 5.05%
COc1ccccc1OP(C)(=O)Nc1c(C)cccc1C (stereo not given)	inactive: 3.24%
CC1=C2N=C(C=C3N=C(C(C)=C4[N-][C@@](C)([C@@H]5N=C1[C@](C)(CCC(=O)NC[C@@H](C)OP(=O)([O-])O[C@H]1[C@@H](O)[C@@H](n6cnc7cc(C)c(C)cc76)O[C@@H]1CO)[C@H]5CC(N)=O)[C@@](C)(CC(N)=O)[C@@H]4CCC(N)=O)[C@@](C)(CC(N)=O)[C@@H]3CCC(N)=O)C(C)(C)[C@@H]2CCC(N)=O.[C-]#N.[Co+3]	inactive: -6.06%
CN(C)C1(CNC(=O)c2ccc(S(C)(=O)=O)cc2)CCCCC1	inactive: -2.88%
O=[N+]([O-])c1cc([N+](=O)[O-])c(Nc2nnnn2CCO)c([N+](=O)[O-])c1	inactive: -5.58%
CCOC(=O)C(CC)C1=NC(C)(C)Cc2ccccc21.O=[N+]([O-])c1cc([N+](=O)[O-])c(O)c([N+](=O)[O-])c1 (stereo not given)	inactive: -3.06%
Cc1nc2ccc3ccccc3c2s1.O=[N+]([O-])c1cc([N+](=O)[O-])c(O)c([N+](=O)[O-])c1	inactive: -6.45%
O=[N+]([O-])c1cc([N+](=O)[O-])c(-c2cnn(-c3ccccc3)c2)c([N+](=O)[O-])c1	inactive: 2.1%
O=[N+]([O-])c1cc([N+](=O)[O-])c(-n2nnc3ccccc32)c([N+](=O)[O-])c1	inactive: -17.9%
Cc1cc(C)cc(OP(C)(=O)Nc2ccccn2)c1 (stereo not given)	inactive: -0.78%
CP(=O)(Nc1cccc(Br)c1)Oc1ccccc1 (stereo not given)	inactive: 4.3%
Cc1ccc(C)c(NP(C)(=O)Oc2ccccc2)c1 (stereo not given)	inactive: 0.82%
Cc1cc(C)cc(OP(C)(=O)Nc2ccc(C)cc2C)c1 (stereo not given)	inactive: -4.25%
CCOC(=O)c1ccc(NP(C)(=O)Oc2cc(C)cc(C)c2)cc1 (stereo not given)	inactive: -5.86%
COc1cc(C(=O)NCC2(N3CCOCC3)CCCCC2)cc(Cl)c1OC(C)C	inactive: -0.83%
COc1ccccc1OP(C)(=O)Nc1cccc(Br)c1 (stereo not given)	inactive: 1.55%
CC1=NCCc2c1[nH]c1ccccc21.O=[N+]([O-])c1cc([N+](=O)[O-])c(O)c([N+](=O)[O-])c1	inactive: -2.72%
O=C(O)c1cccc(Nc2c([N+](=O)[O-])cc([N+](=O)[O-])cc2[N+](=O)[O-])c1	inactive: -11.8%
COc1ccccc1OP(C)(=O)Nc1cc(Cl)ccc1C (stereo not given)	inactive: -1.94%
COc1ccc(OP(C)(=O)Nc2cccc(F)c2)cc1 (stereo not given)	inactive: 4.55%
Cc1cc(C)cc(OP(C)(N)=O)c1 (stereo not given)	inactive: 6.02%

SMILES	activation
CCOC(=O)c1ccc(NP(C)(=O)Oc2ccccc2)cc1 (stereo not given)	inactive: 6.07%
COc1ccccc1OP(C)(=O)Nc1ccc(C)cc1 (stereo not given)	inactive: -1.72%
Cc1ccc(NP(C)(=O)Oc2ccccc2)c(C)c1 (stereo not given)	active: 17.1%
CC(C)(C)c1ccc(OP(C)(=O)Nc2ccc(SC(F)(F)F)cc2)cc1 (stereo not given)	inactive: 0.3%
Cc1cccc(C)c1OP(C)(N)=O (stereo not given)	inactive: -0.19%
O=[N+]([O-])c1ccc2c(c1)C=Nc1ccccc1O2	inactive: -0.3%
O=[N+]([O-])c1cc([N+](=O)[O-])c(Nc2cccnc2)c([N+](=O)[O-])c1	inactive: -15.3%
COc1cc(C(=O)NCC2(N3CCOCC3)CCCCC2)ccc1OCC(C)C	inactive: -3.53%
CCN(CC)CCn1c(NCc2ccc(OC)cc2)nc2ccccc21	inactive: -0.48%
Cc1ccc(S(=O)(=O)NCCC(=O)N2CCN(C/C=C/c3ccccc3)CC2)cc1	inactive: 8.71%
O=C(OC1CN2CCC1CC2)C12CC3CC(CC(C3)C1)C2 (stereo not given)	active: 9.81%
CCN(CC)CCCOC(=O)C(O)(c1ccccc1)c1ccccc1	inactive: 2.27%
CP(=O)(Nc1ccccn1)Oc1ccc(Cl)cc1 (stereo not given)	inactive: -1.17%
CCOP(C)(=S)SCC(=O)NC(C)C(=O)O (stereo not given)	inactive: 4.84%
CCOC(=O)c1ccc(NP(C)(=O)Oc2ccc(OC)cc2)cc1 (stereo not given)	inactive: -4.5%
CP(=O)(NC(=O)Nc1ccccc1)Oc1ccccc1 (stereo not given)	inactive: -8.38%
CCc1ccc(OP(C)(=O)N2CCN(c3ccc([N+](=O)[O-])cc3)CC2)cc1 (stereo not given)	inactive: 0.47%
Cc1cc(C)cc(OP(C)(=O)Nc2ccc(SC(F)(F)F)cc2)c1 (stereo not given)	inactive: 3.95%
Cc1cccc(C)c1OP(C)(=O)Nc1ccc(SC(F)(F)F)cc1 (stereo not given)	inactive: -0.17%
CP(=O)(Oc1ccccc1)OC(c1ccccc1)C(F)(F)F (stereo not given)	inactive: 3.92%
C=CCC1(Nc2ccccc2)CC(C)N(C)CC1C (stereo not given)	inactive: 0.99%
COc1ccccc1OP(C)(=O)Nc1ccccc1 (stereo not given)	inactive: 1.48%
CP(=O)(Nc1ccccc1Br)Oc1ccccc1 (stereo not given)	inactive: -2.86%
CP(=S)(Nn1cnnc1)Oc1ccccc1 (stereo not given)	inactive: 6.05%
CCCCOc1ccc(C(=O)NCC2(N3CCCCC3)CCCCC2)cc1OC	inactive: 1.79%
